Protein sequences, listed by entry. Tags and fused reporters are not part of them. Residues count along the entry.
UniProt Q9NZQ7, 19-238 limits assumed: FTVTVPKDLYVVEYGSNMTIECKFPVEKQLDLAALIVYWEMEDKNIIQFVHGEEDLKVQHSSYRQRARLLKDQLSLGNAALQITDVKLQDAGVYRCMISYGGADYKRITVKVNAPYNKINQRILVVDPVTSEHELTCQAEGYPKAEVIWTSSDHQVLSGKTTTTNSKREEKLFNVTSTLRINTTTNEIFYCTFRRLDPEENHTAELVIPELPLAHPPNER

According to patent US20230331675A1, “AROMATIC ETHYLENE COMPOUND AND PREPARATION METHOD THEREFOR, AND INTERMEDIATE, PHARMACEUTICAL COMPOSITION, AND APPLICATION THEREOF” (GUANGZHOU MAXINOVEL PHARMACEUTICALS CO., LTD., priority 2020, published 2023):

Target: PD-1/PD-L1 (Homo sapiens (Human), UniProt Q9NZQ7)
Assay: Homogeneous time-resolved fluorescence (HTRF) binding assay
Settings: read-out: IC50 of compounds binding to PD-1/PD-L1, CisBio kit
Source text: Effect embodiment 1: Homogenouse time-resolved fluorescence
Homogeneous time-resolved fluorescence (HTRF) binding assay was used to determine the binding ability of the compound of the present disclosure to PD-1/PD-L1.
The purchased kit (CisBio, #64CUS000C-1) contained reagents required for assays such as PD-1, PD-L1, anti-tag1-Eu, Anti-tag2-XL665, dilute buffer, and detection buffer.
1. The compound was formulated to 10 concentrations with a 3-fold gradient with 100% DMSO.
2. The DMSO solution of the compound was added to the dilute buffer, mixed thoroughly, then transferred to a 96-well plate.
3. PD-L1 was diluted with dilute buffer, then added to the above 96-well plate.
4. PD-1 was diluted with dilute buffer and added to the above 96-well plate, which was then incubated at room temperature for 30 minutes.
5. A portion of anti-tag1-Eu and a portion of anti-tag2-XL665 were added to the detection buffer, mixed thoroughly and transferred to the above 96-well plate.
6. The mixture in the above 96-well plate was incubated at room temperature for 1 to 24 hours.
7. HTRF values were read with Envision.

With `[2H]/C(=C(/[2H])c1cccc(-c2ccccc2)c1C)c1cc(OC)c(CN2CCCC[C@H]2C(=O)O)cc1C(F)(F)F` as the molecule, how does the IC50 read?
The IC50 was 2 nM.
